Measured values published in US20080306162A1, “Treatment of Inflammatory Disorders and Pain” (priority 2005, published 2008).

The chains behind the UniProt entries cited, without tags or fusion partners.
UniProt Q8K4Z4, whole entry: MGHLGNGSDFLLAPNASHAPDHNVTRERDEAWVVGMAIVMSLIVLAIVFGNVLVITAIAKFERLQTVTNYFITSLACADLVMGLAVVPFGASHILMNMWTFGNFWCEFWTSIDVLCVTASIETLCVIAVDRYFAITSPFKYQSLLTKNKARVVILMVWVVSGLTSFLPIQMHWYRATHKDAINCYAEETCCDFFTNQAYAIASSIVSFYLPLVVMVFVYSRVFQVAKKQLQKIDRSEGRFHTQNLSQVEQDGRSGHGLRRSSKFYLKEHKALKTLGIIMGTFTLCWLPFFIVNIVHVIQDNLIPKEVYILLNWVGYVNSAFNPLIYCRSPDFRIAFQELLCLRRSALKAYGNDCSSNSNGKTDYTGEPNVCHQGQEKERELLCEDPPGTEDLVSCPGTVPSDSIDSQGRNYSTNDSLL

Target: Beta2 (Cavia porcellus, UniProt Q8K4Z4)
Assay: Beta2 agonism functional assay (inhibition of carbachol-stimulated tracheal muscle twitch)
Settings: read-out: IC50 in the beta agonism functional assay; guinea-pig trachea ring, carbachol-contracted
Experimental: Guinea-pig trachea ring preparations were suspended in Kreb's solution containing indomethacin. After 15 minutes stabilisation, the preparations were repeated contracted using carbachol and simultaneously treated with increasing cumulative doses test compounds (0.1 nM to 0.1 μM). Beta2 agonism for each test compound was determined by its dose-dependant inhibition of carbachol-stimulated tracheal muscle twitch.

Question: How did the IC50 turn out when `COc1ccc(CC(C)NCC(O)c2ccc(O)c(NC=O)c2)cc1` (stereo not shown) was run?
Answer: The IC50 was 2.2 nM.
